Laboratory results from ChEMBL document CHEMBL1134311, “Nonsteroidal selective glucocorticoid modulators: the effect of C-5 alkyl substitution on the transcriptional activation/repression profile of 2,5-dihydro-10-methoxy-2,2,4-trimethyl-1H-[1]benzopyrano[3,4-f]quinolines” (J Med Chem, 2001).

Legend:
Glucocorticoid receptor [1] = target: T1, Glucocorticoid receptor (Homo sapiens, UniProt P04150); experiment: The effective concentration in CV-1 cells for glucocorticoid response element activation (GRE).; type: functional, cell-based
T1 sequence (P04150 whole entry): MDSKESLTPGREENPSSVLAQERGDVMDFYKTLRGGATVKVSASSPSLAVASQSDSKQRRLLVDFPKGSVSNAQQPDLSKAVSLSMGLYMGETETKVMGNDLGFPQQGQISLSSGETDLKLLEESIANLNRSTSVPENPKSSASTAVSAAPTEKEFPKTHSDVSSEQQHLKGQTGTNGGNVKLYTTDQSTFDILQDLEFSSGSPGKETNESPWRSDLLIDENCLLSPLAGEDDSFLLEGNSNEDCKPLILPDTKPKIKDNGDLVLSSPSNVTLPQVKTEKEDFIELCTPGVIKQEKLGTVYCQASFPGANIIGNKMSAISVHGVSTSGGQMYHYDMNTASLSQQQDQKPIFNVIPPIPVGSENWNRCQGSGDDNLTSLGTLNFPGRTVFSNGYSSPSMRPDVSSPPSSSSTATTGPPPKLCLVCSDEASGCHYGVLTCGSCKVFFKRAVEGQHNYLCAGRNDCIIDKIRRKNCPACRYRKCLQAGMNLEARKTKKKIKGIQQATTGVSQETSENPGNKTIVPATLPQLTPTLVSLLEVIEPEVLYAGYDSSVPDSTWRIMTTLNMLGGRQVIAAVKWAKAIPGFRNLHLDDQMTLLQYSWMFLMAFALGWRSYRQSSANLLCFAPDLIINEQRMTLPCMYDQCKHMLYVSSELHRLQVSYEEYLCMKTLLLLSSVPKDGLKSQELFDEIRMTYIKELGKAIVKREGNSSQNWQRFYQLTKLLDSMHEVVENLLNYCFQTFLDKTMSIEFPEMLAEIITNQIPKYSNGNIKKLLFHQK

Glucocorticoid receptor [2] = target: T1, Glucocorticoid receptor; experiment: Effective concentration in HepG2 cells transfected with LUC gene (E-sel-Luc).; type: functional, cell-based

Compound | EC50 (Glucocorticoid receptor [1]) | EC50 (Glucocorticoid receptor [2])
CCOC(=O)C1Oc2cccc(OC)c2-c2ccc3c(c21)C(C)=CC(C)(C)N3 (stereo not given) | 320 nM | 126 nM
COc1cccc2c1-c1ccc3c(c1C(CCN(C)C)O2)C(C)=CC(C)(C)N3 (stereo not given) | 520 nM | 306 nM
COc1cccc2c1-c1ccc3c(c1C(C)O2)C(C)=CC(C)(C)N3 (stereo not given) | > 5000 nM | 15 nM

The remaining lines, values ahead:

EC50 (Glucocorticoid receptor [1]) | EC50 (Glucocorticoid receptor [2]) | Compound
> 5000 nM | > 5000 nM | COc1cccc2c1-c1ccc3c(c1C(CCO)O2)C(C)=CC(C)(C)N3 (stereo not given)
405 nM | 122 nM | CCCCC1Oc2cccc(OC)c2-c2ccc3c(c21)C(C)=CC(C)(C)N3 (stereo not given)
